Results on one substance are retold here after patent US20220313702A1, “OXATHIAZIN COMPOUNDS FOR INHIBITING GAPDH” (Geistlich Pharma AG, priority 2019, published 2022).

The data set has as its system JL-1 cells. Briefly: cell viability MTT assay, JL-1 mesothelioma cells. As to conditions: JL-1, 1.0 uM MMC, 24 h at 37° C. The method, then: (§1) Cell viability was tested colorimetically using the MTT assay. Viable cells convert the yellow MTT dye to violet formazan (Sigma M5655).
as §1

Turning to mitomycin C, the “cytotoxicity, drug alone” value was “inactive per se”.
